# How the values were obtained:
# [1] = Cell viability assay (CellTiter 96 AQueous) in HeLa cells; details: human
# [2] = Cell viability assay (CellTiter 96 AQueous) in RD cells; details: human
structure (smiles),measurement,setting,value
"Oc1c(Cl)cc(Cl)c(Cl)c1Cc1c(O)c(Cl)cc(Cl)c1Cl [Hexachorophene, Hexachlorophene]",CC50 at 12 h,[1],23.8 µM
same,CC50 at 12 h,[2],28.6 µM
